Data on one molecule can be found in PubChem BioAssay AID529 (NMMLSC, 2006).

Amino acid sequences for entries named in this document (tags omitted).
UniProt P13612, whole entry, looked up: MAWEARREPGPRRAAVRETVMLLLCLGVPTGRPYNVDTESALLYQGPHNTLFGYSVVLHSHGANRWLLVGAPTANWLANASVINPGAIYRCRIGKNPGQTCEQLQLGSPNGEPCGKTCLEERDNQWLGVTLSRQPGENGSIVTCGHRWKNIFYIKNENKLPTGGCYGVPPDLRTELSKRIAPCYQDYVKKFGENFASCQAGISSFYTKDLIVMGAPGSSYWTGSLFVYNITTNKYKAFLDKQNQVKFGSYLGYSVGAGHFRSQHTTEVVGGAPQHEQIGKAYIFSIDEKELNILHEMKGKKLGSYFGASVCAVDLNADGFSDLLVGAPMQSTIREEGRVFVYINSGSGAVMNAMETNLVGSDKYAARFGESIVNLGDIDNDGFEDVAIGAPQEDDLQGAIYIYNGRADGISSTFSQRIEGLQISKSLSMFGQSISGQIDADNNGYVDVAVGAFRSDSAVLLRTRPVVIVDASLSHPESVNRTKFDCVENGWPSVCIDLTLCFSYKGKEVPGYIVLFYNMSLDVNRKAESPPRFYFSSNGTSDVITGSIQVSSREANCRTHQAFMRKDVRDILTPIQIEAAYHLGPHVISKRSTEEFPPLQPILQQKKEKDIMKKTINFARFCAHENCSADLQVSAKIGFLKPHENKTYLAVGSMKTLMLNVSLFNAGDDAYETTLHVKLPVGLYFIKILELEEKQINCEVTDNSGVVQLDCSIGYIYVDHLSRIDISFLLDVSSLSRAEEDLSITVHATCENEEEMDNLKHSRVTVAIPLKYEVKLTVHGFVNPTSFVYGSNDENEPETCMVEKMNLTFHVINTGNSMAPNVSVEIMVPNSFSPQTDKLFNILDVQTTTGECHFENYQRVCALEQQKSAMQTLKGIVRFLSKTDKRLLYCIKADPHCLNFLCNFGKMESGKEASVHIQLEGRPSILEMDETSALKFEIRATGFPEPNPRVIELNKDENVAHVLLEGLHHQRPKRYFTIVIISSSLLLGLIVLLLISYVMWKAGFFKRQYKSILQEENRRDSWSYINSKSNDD

The entries are a selection whose mix differs from that of the whole data set. Some tests of the compounds listed are not included; inactive here does not mean inactive elsewhere. Inconclusive results are not listed. Active and inactive are the calls of the source.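 The calls were made as follows: active = inhibition above 50%; inconclusive = compound itself fluorescent, judged against control cell fluorescence; inactive = the rest.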

The test concerns the target Integrin alpha-4 (Homo sapiens) (UniProt P13612). The test is described as follows: blockers of LDV-FITC ligand binding on VLA-4 – Jurkat cells, Mn2+ activated, primary screen (AID 529).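 Also: 0% = Mn2+ stimulated cells lacking compound and 100% = ligand binding without Mn2+.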 The conditions noted are these: LDV-FITC binding with Mn2+, flow cytometry, stronger effect = higher value, screened at 10 µM (by protocol), 100% = Mn2+-driven binding gain fully reversed. For orientation: In flow cytometry, cells or beads pass a laser one at a time.
What is called inhibition is the relative decrease from the control value, in per cent. Turning to `O=C(OC1CN2CCC1CC2)C(CO)(c1ccccc1)c1ccccc1` (stereo unspecified), the inhibition is inactive: -12.5%.
